# Assay results published in patent US6579881B2 (Eisai Co., Ltd., priority 1997, dated 2003).
# Chains of the proteins cited; added tags and fusions are not shown.
# UniProt P14842, whole entry, looked up: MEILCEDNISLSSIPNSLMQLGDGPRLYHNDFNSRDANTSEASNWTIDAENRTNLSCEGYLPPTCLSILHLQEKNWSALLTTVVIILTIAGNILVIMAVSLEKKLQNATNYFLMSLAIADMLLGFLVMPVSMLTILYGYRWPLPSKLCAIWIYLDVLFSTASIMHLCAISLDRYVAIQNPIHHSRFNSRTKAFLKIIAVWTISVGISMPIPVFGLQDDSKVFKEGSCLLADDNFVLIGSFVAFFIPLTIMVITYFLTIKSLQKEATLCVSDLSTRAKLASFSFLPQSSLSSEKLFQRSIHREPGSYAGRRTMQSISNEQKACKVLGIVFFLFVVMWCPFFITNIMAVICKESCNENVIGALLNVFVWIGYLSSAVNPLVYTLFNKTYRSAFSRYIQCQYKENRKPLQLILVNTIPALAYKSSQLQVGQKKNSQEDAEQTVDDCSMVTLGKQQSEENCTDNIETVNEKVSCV
# Target: serotonin 2 receptor (Rattus norvegicus, UniProt P14842)
# Assay: Binding test on [3H] ketanserin (serotonin 2 receptor)
# Conditions: read-out: 5HT2; [3H] ketanserin 0.3 nM, receptor fraction of rat cerebral cortex
compound,measurement,value
"OC[C@@H]1CN(CCc2ccc(F)cc2)CC[C@@H]1N1CCc2ccccc21 (relative stereo) [Example 81, cis-1-[1-(4-fluorophenethyl)-3-hydroxymethylpiperidin-4-yl]indoline]",Ki,119 nM
